Assay: Disposition of Hg
Conditions: 24 h
[1] = both control and TR− rats, data not shown

**Q.** For “Cysteine-S-conjugate of CH3HgCl [Cys-S-CH3Hg]”, which “hematological burden of Hg, compared with rats of the same strain exposed to HgCl2 or CH3HgCl alone” value (TR− rats, i.v.) is on record?
**A.** significantly lower and half

**Q.** And the “hepatic burden of Hg, compared with rats of the same strain exposed to HgCl2 or CH3HgCl alone” value (TR− rats, i.v.)?
**A.** significantly greater

**Q.** What about the “renal burden of Hg, compared with rats of the same strain exposed to HgCl2 or CH3HgCl alone” value (TR− rats, i.v.) of the same substance?
**A.** four-fold greater

**Q.** And the “urinary excretion of Hg, compared with rats of the same strain exposed to HgCl2 or CH3HgCl alone” value (TR− rats, i.v.)?
**A.** less Hg in the urine

**Q.** And the “hematological burden of Hg associated with cellular components of blood” value [1]?
**A.** approximately 99%

**Q.** What about the “hematological burden of Hg present in plasma” value [1] of the same substance?
**A.** ~1%

**Q.** What about the “fecal excretion of Hg, compared with rats of the same strain exposed to HgCl2 or CH3HgCl alone” value (control rats, i.v.) of the same substance?
**A.** increased significantly

**Q.** What about the “hematological burden of Hg, compared with rats of the same strain exposed to HgCl2 or CH3HgCl alone” value (control rats, i.v.) of the same substance?
**A.** significantly lower and half

**Q.** And the “hepatic burden of Hg, compared with rats of the same strain exposed to HgCl2 or CH3HgCl alone” value (control rats, i.v.)?
**A.** significantly greater

**Q.** And the “renal burden of Hg, compared with rats of the same strain exposed to HgCl2 or CH3HgCl alone” value (control rats, i.v.)?
**A.** four-fold greater

**Q.** And the “urinary excretion of Hg, compared with rats of the same strain exposed to HgCl2 or CH3HgCl alone” value (control rats, i.v.)?
**A.** twofold greater

**Q.** What about the “amount of Hg in blood, TR− rats compared with corresponding control rats” value (i.v.) of the same substance?
**A.** did not significantly alter

**Q.** And the “renal burden of Hg, TR− rats compared with corresponding control rats” value (i.v.)?
**A.** slightly, yet significantly, greater

**Q.** And the “renal burden of Hg” value (rats, strain not stated (discussion), i.v.)?
**A.** ~20 % of the dose

Reference: PMC3028519 (Toxicology and applied pharmacology, 2010)
